The source of these data is ChEMBL document CHEMBL6182939, “Searching for Synthetic Opioid Rescue Agents. 2: Identification of an Ultra-Potent Synthetic Opioid Rescue Agent” (J Med Chem, 2025).

Sequences of proteins named here, by UniProt entry; tags and fusion partners are left off. A change or cut given only in a name is not applied to a line headed by its entry.
UniProt P41143, whole entry: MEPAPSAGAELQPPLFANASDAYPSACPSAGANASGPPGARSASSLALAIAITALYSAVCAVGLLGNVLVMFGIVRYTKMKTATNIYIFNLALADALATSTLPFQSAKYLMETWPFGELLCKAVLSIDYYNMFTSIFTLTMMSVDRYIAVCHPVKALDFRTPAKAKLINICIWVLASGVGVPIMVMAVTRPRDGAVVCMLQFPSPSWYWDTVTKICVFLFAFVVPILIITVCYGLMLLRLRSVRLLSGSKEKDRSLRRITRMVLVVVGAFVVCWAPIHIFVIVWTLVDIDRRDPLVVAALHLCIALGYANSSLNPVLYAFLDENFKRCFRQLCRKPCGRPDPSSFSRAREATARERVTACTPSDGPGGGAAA
UniProt P41145: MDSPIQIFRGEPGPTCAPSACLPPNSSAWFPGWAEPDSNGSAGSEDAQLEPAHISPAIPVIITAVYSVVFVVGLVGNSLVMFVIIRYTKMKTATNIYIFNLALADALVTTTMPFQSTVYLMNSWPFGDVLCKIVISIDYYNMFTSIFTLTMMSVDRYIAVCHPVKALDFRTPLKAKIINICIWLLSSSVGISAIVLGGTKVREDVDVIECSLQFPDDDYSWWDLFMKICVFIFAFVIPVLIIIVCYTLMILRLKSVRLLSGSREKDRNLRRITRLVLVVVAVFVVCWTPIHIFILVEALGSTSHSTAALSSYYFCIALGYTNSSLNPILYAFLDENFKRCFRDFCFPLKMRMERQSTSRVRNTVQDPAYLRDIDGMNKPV

By pIC50 is commonly meant the IC50 on a negative log10 scale, so that one unit is a factor of ten. Read a low pIC50 as a large IC50.

Assay [1] addresses T1, Delta-type opioid receptor (Homo sapiens, UniProt P41143). Description: Antagonist activity against human DOR expressed in CHO-K1 cells assessed as maximal inhibition of forskolin-induced cAMP accumulation pretreated for 15 mins followed by forskolin addition measured after 30 mins by HitHunter cAMP assay normalized to naltrexone. The assay is classed as functional, cell-based. The note with it: filed as antagonist, time 45.0 min. (In general: Changes in cAMP serve as a functional read-out for many G protein-coupled receptors.)

For assay [2], the target named is T1, Delta-type opioid receptor.
The target of assay [3] is Kappa-type opioid receptor (Homo sapiens, UniProt P41145).

pIC50: −log10 of the molar value.

As for `C=C1CC[C@@]2(O)[C@H]3Cc4ccc(O)c5c4[C@@]2(CCN3CC2CC2)[C@H]1O5`, the Imax in assay [1] was 90.5%. In assay [2], this compound showed a pIC50 of 6.90. With `NC(=O)c1ccc(Oc2ccc(CNCCc3ccccc3)cc2)cc1`, in assay [1], the Imax is 190%. The same compound gave a pIC50 in assay [2] of 8.50.

In assay [3], `NC(=O)c1ccc(Oc2ccc(CNCCc3ccccc3)cc2)nc1` had a pIC50 of 8.00.
